Laboratory results published in patent publication US20160220689A1, “MACROMOLECULES OF DENDRIMER-PLATINUM CONJUGATES” (priority 2013, published 2016).

Assays:
[1] = Neuropathic responses, Von Frey test of mechanical sensitivity; conditions: after 2 doses, versus Oxaliplatin
[2] = tested on: bone marrow nucleated cells; test: Nucleated cells in bone marrow by flow cytometry; conditions: 72 hours; greater dose of Pt than Oxaliplatin
[3] = Toxicity study: blood cell counts in tumor-bearing mice; conditions: Oxaliplatin 5, Compound 1 8.5, Compound 5 9 mg/kg Pt equivalents IV days 1, 8, 15
Method: The mice were randomised into 4 groups of n=5 mice, (mean tumor volume ˜90 mm^3) On day one, animals were eye bled in the morning for baseline cell counts and then drug dosing commenced later that day. Drug dosing was performed on days 1, 8 and 15 at the previously determined maximum tolerated doses. All compounds were dissolved in 5% glucose at the concentration required to allow administration of 0.1 mL/10 g body weight. […] Subsequent eye bleeds were performed on days 7, 14 and 26 (Tables 4 A-D, in each case data represented as mean ratio of counts for each time point relative to that at the baseline).

Substance | mechanical sensitivity / peripheral neurotoxicity [1] | damage to bone marrow nucleated cells compared with Oxaliplatin [2] | Mean lymphocytes counts (baseline corrected) (SEM) ([3]; Day 1 (baseline)) | Mean lymphocytes counts (baseline corrected) (SEM) ([3]; Day 7) | Mean lymphocytes counts (baseline corrected) (SEM) ([3]; Day 14) | Mean lymphocytes counts (baseline corrected) (SEM) ([3]; Day 26)
BHALys[Lys]32[α-Succ-Gly-Gly-Gly-amino malonic acid-Pt-1R,2R-(DACH)]32[ε-PEG2200]32 [Compound 1] | improved mechanical sensitivity | higher proportion of nucleated cells at 72 hours | 1.000 (0.196) | 1.365 (0.420) | 2.059 (0.500) | 1.127 (0.221)
BHALys[Lys]32[α-Succ-Gly-Leu-Phe-Gly-amino malonic acid-Pt-1R,2R-(DACH)]32[ε-PEG2200]32 [Compound 5] | – | – | 1.000 (0.381) | 0.300 (0.150) | 1.057 (0.340) | 1.224 (0.366)
